Measured values published in US20230158141A1.

Legend:
TNFα = TNFα (UniProt P01375); assay: ELISA, conjugate vs WT antibody
[1] = molecular target: TNFa protein (Sino Biological) (UniProt P01375); assay: ELISA; R4-7 on the Cys
[2] = molecular target: TNFa protein (Sino Biological) (UniProt P01375); assay: ELISA, EC50 fold change; S47 on the Cys

## anti-TNFα antibody heavy chain I58C-R4-3 (antibody; other documents disagree on this pair)
TNFα
  binding activity (% of WT): 86.7%

## Adalimumab Thr5Cys (VL) (antibody; other documents disagree on this pair)
[1]
  Binding activity (% of WT antibody): 97.4

## anti-TNFα antibody heavy chain Y110C-R4-4 (antibody; other documents disagree on this pair)
TNFα
  binding activity (% of WT): 82.5%

## anti-TNFα antibody heavy chain T104C-R4-1 (antibody; other documents disagree on this pair)
TNFα
  binding activity (% of WT): 97.3%

## anti-TNFα antibody light chain A34C-R4-1 (antibody; other documents disagree on this pair)
TNFα
  binding activity (% of WT): 85.7%

## Adalimumab Gln3Cys (VH) (antibody)
[1]
  Binding activity (% of WT antibody): 78.4

## anti-TNFα antibody heavy chain Y60C-R4-4 (antibody; other documents disagree on this pair)
TNFα
  binding activity (% of WT): 85.2%

## anti-TNFα antibody heavy chain Y32C-R4-4 (antibody; other documents disagree on this pair)
TNFα
  binding activity (% of WT): 88.6%

## anti-TNFα antibody light chain Y32C-R4-4 (antibody; other documents disagree on this pair)
TNFα
  binding activity (% of WT): 89.1%

## anti-TNFα antibody heavy chain A61C-R4-1 (antibody; other documents disagree on this pair)
TNFα
  binding activity (% of WT): 95.7%

## anti-TNFα antibody heavy chain Y101C-R4-4 (antibody; other documents disagree on this pair)
TNFα
  binding activity (% of WT): 85.4%

## anti-TNFα antibody light chain A25C-R4-1 (antibody; other documents disagree on this pair)
TNFα
  binding activity (% of WT): 88.6%

## anti-TNFα antibody heavy chain L108C-R4-3 (antibody; other documents disagree on this pair)
TNFα
  binding activity (% of WT): 81.4%

## anti-TNFα antibody heavy chain L102C-R4-3 (antibody; other documents disagree on this pair)
TNFα
  binding activity (% of WT): 85.5%

## anti-TNFα antibody heavy chain S63C-R4-1 (antibody; other documents disagree on this pair)
TNFα
  binding activity (% of WT): 96.8%

## anti-TNFα antibody heavy chain T52C-R4-1 (antibody; other documents disagree on this pair)
TNFα
  binding activity (% of WT): 82.8%

## anti-TNFα antibody light chain A94C-R4-1 (antibody; other documents disagree on this pair)
TNFα
  binding activity (% of WT): 97.5%

## anti-TNFα antibody light chain T53C-R4-1 (antibody; other documents disagree on this pair)
TNFα
  binding activity (% of WT): 89.4%

## anti-TNFα antibody heavy chain G66C-R4-1 (antibody; other documents disagree on this pair)
TNFα
  binding activity (% of WT): 99.4%

## anti-TNFα antibody heavy chain S55C-R4-1 (antibody; other documents disagree on this pair)
TNFα
  binding activity (% of WT): 86.9%

## anti-TNFα antibody light chain G57C-R4-1 (antibody; other documents disagree on this pair)
TNFα
  binding activity (% of WT): 95.5%

## anti-TNFα antibody heavy chain I51C-R4-3 (antibody; other documents disagree on this pair)
TNFα
  binding activity (% of WT): 103%

## anti-TNFα antibody light chain L54C-R4-3 (antibody; other documents disagree on this pair)
TNFα
  binding activity (% of WT): 82.2%

## anti-TNFα antibody light chain L33C-R4-3 (antibody; other documents disagree on this pair)
TNFα
  binding activity (% of WT): 89.4%

## anti-TNFα antibody heavy chain G56C-R4-1 (antibody; other documents disagree on this pair)
TNFα
  binding activity (% of WT): 88.7%

## Ada-se002 (Adalimumab heavy chain Asp59Cys) (antibody)
[2]
  Blocking efficiency of S47: 7 fold

## anti-TNFα antibody light chain A51C-R4-1 (antibody; other documents disagree on this pair)
TNFα
  binding activity (% of WT): 95.1%

## Ada-se001 (Adalimumab heavy chain Tyr32Cys) (antibody)
[2]
  Blocking efficiency of S47: 11 fold

## anti-TNFα antibody light chain Y91C-R4-1 (antibody; other documents disagree on this pair)
TNFα
  binding activity (% of WT): 34.5%

## anti-TNFα antibody light chain A50C-R4-1 (antibody; other documents disagree on this pair)
TNFα
  binding activity (% of WT): 85.5%

## Adalimumab Thr68Cys (VH) (antibody)
[1]
  Binding activity (% of WT antibody): 97.8

## anti-TNFα antibody light chain I29C-R4-3 (antibody; other documents disagree on this pair)
TNFα
  binding activity (% of WT): 87.8%

## anti-TNFα antibody light chain S52C-R4-1 (antibody; other documents disagree on this pair)
TNFα
  binding activity (% of WT): 86.8%

## Adalimumab Glu46Cys (VH) (antibody)
[1]
  Binding activity (% of WT antibody): 78.4

## anti-TNFα antibody heavy chain A105C-R4-1 (antibody; other documents disagree on this pair)
TNFα
  binding activity (% of WT): 86.5%

## anti-TNFα antibody light chain T97C-R4-1 (antibody; other documents disagree on this pair)
TNFα
  binding activity (% of WT): 82.5%

## Adalimumab Ser26Cys (VH) (antibody)
[1]
  Binding activity (% of WT antibody): 68.4

## anti-TNFα antibody heavy chain S106C-R4-1 (antibody; other documents disagree on this pair)
TNFα
  binding activity (% of WT): 98.3%

## anti-TNFα antibody light chain S56C-R4-1 (antibody; other documents disagree on this pair)
TNFα
  binding activity (% of WT): 95.4%

## anti-TNFα antibody light chain G28C-R4-1 (antibody; other documents disagree on this pair)
TNFα
  binding activity (% of WT): 92.3%

## anti-TNFα antibody heavy chain A33C-R4-1 (antibody; other documents disagree on this pair)
TNFα
  binding activity (% of WT): 95.1%

## anti-TNFα antibody heavy chain S103C-R4-1 (antibody; other documents disagree on this pair)
TNFα
  binding activity (% of WT): 84.5%

## anti-TNFα antibody light chain S26C-R4-1 (antibody; other documents disagree on this pair)
TNFα
  binding activity (% of WT): 97.1%

## anti-TNFα antibody heavy chain S100C-R4-1 (antibody; other documents disagree on this pair)
TNFα
  binding activity (% of WT): 92.2%

## anti-TNFα antibody light chain Y91C-R4-4 (antibody; other documents disagree on this pair)
TNFα
  binding activity (% of WT): 90.1%

## Adalimumab Ser7Cys (VH) (antibody)
[1]
  Binding activity (% of WT antibody): 87.4

## anti-TNFα antibody heavy chain S107C-R4-1 (antibody; other documents disagree on this pair)
TNFα
  binding activity (% of WT): 87.4%
